The subject of this data set is A2780cis. The experiment in a line: Cellular viability assay (resazurin / Alamar Blue, 72 h), cisplatin-resistant variant. The note with it: 72 h at 37 °C, compared to cisplatin, result in words. (In general: Resazurin is reduced to fluorescent resorufin, in cell work by metabolically active cells.)

We go through one substance from patent EP3795574A1, “SYNTHESIS AND USAGE OF 1,2-DIAMINODIAMANTANE PLATINUM(II) COMPLEXES” (Justus-Liebig-Universität Gießen, priority 2019, dated 2021).

“cis-[1,2-diaminodiamantane]dichlorideplatinum(II) [(R,R)-1]”: the cytotoxicity result is on record as “superior cytotoxicity compared to cisplatin”.
